Laboratory results from article PMC8121815 (Nature Communications, 2021).
Entries after “also recorded” stand apart in the source; their conditions may differ.

Tested on: Hsp90/TOM70 interaction
Type: binding, human

CC[C@H](C)[C@H](N)C(=O)N[C@H](C(=O)N[C@@H](CC(C)C)C(=O)N[C@@H](CCCNC(=N)N)C(=O)N[C@@H](CC(C)C)C(=O)NCC(=O)N[C@@H](CO)C(=O)N1CCC[C@H]1C(=O)N[C@@H](CC(C)C)C(=O)N[C@@H](CO)C(=O)N[C@@H](CC(C)C)C(=O)N[C@@H](CC(N)=O)C(=O)N[C@@H](CCSC)C(=O)N[C@@H](C)C(=O)N[C@@H](CCCNC(=N)N)C(=O)N[C@@H](CCCCN)C(=O)N[C@H](C(=O)N[C@@H](CC(C)C)C(=O)N[C@@H](CC(N)=O)C(=O)N[C@@H](CO)C(=O)N[C@@H](CC(C)C)C(=O)N[C@@H](CCC(=O)O)C(=O)N[C@@H](CC(=O)O)C(=O)N[C@@H](CCCCN)C(=O)N[C@@H](C)C(=O)N[C@@H](Cc1ccccc1)C(=O)N[C@@H](CCC(N)=O)C(=O)O)[C@@H](C)O)[C@@H](C)CC [C-peptide]
effect on binding of EEVD motif / N-peptide to hTOM70: blocked the binding of the EEVD motif to TOM70, although to a lesser extent; also recorded: clearly able to block N-peptide binding similar to the intact orf9b, albeit to a lesser extent
